Experimental data published in publication PMC8511083 (European journal of medicinal chemistry, 2021).

How the values were obtained:
[1] = test system: A375 xenograft tumors; assay: A375 subcutaneous melanoma xenograft model in NSG mice; type: in vivo, mouse; conditions: 20 mg/kg and 40 mg/kg IP, 15 days
[2] = test system: OVCAR8 orthotopic ovarian tumors; assay: Orthotopic OVCAR8 ovarian cancer mouse model; type: in vivo; conditions: 20 mg/kg then 40 mg/kg IP, during the treatment period

Oc1c(CN2CCCCC2)cc(Cn2ncc(-c3ccc(C(F)(F)F)cc3)n2)c2cccnc12 [Compound 12b, 7-(piperidin-1-ylmethyl)-5-((4-(4-(trifluoromethyl)phenyl)-2H-1,2,3-triazol-2-yl)methyl)quinolin-8-ol]
tumor growth ([1]; 3 times/week, vs vehicle): significantly inhibited tumor growth in a dose-dependent manner
body weight [1]: no significant body weight loss
body weight [2]: no severe weight loss
